Earlier results, collected in US20050192349A1, “Isolation of the peroxisome proliferation-activated receptor-gamma (PPARgamma) ligand and methods of use thereof” (Beth Israel Deaconess Medical Center, Inc., priority 2002, published 2005).

By UniProt entry, the sequences of proteins in these tests, tags left out.
UniProt P37231, whole entry: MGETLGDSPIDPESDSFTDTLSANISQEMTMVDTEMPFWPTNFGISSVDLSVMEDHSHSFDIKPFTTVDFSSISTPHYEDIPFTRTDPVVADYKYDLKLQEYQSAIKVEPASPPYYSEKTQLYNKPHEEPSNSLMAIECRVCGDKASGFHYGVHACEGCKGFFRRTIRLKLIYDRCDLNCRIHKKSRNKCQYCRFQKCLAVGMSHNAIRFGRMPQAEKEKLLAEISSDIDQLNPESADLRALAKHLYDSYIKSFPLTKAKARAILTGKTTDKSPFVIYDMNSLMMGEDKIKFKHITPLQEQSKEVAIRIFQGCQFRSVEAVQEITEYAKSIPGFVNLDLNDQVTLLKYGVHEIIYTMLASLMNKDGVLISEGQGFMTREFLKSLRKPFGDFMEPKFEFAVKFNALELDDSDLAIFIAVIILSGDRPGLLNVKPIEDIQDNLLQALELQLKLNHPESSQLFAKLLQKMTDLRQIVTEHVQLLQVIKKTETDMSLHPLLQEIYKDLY

Columns and labels:
[1] = target: SRC-1 / synthetic agonist-bound PPARγ (Homo sapiens, UniProt P37231); conditions: cited from earlier work
[2] = target: PPARγ (Homo sapiens, UniProt P37231); conditions: read-out: Ki for displacing rosiglitazone; cited from earlier work

## C=CCn1cc([N+](=O)[O-])sc1=NC(=O)C(C)(C)C [PD068235]
[1]
  interaction of coactivator SRC-1 with synthetic agonist-bound PPARγ: inhibit the interaction of coactivator SRC-1 with synthetic agonist-bound PPARγ
[2]
  Ki: 1 µM
